Patent publication US7759438B2, “Polymerization process for preparing (co)polymers” (dated 2010)
Where two headings read alike, the source gives them in different places.

Tests used:
[1] = Half life of organic peroxide at the polymerization temperature; conditions: at the polymerization temperature of 57° C.
[2] = Solubility of organic peroxide in water at 0° C. (1H-NMR of water phase)

SMILES	half life [1] [min]	Solubility in water 0° C. [2] [ppm]	Solubility in water 0° C. ([2]; listed as di(2-ethylhexyl) peroxy-dicarbonate) [ppm]
CC(C)C(=O)OOC(=O)C(C)C	6	35	
CCCCC(CC)COC(=O)OOC(=O)OCC(CC)CCCC (stereo not shown)	144	<1	< 1
CCCCCCCCCCCC(=O)OOC(=O)C(C)C	24	2	
